According to patent publication US12593865B2, “Member for flavor inhalation article, flavor inhalation article, phenol scavenger for flavor inhalation article, and method for producing flavor inhalation article” (Japan Tobacco Inc., priority 2019, dated 2026):

How the values were obtained:
[1] = Vapor pressure Vp of the substance at 25° C.
[2] = Octanol/water partition coefficient Log P at 25° C.

With `CCCCOP(=O)(OCCCC)OCCCC` as the molecule, how does the “Vapor Pressure (Pa) at 25° C.” value [1] read?
The value was 0.151 Pa.

What about the Partition Coefficient Log P at 25° C. [2] of the same molecule?
Its Partition Coefficient Log P at 25° C. is 4.54.
